The text below walks through data of patent publication US7115258B2, “Vesicular monoamine transporter gene therapy in parkinson's disease” (priority 1998, dated 2006).

Protein sequences, listed by entry. Tags and fused reporters are not part of them.
UniProt Q01827, whole entry: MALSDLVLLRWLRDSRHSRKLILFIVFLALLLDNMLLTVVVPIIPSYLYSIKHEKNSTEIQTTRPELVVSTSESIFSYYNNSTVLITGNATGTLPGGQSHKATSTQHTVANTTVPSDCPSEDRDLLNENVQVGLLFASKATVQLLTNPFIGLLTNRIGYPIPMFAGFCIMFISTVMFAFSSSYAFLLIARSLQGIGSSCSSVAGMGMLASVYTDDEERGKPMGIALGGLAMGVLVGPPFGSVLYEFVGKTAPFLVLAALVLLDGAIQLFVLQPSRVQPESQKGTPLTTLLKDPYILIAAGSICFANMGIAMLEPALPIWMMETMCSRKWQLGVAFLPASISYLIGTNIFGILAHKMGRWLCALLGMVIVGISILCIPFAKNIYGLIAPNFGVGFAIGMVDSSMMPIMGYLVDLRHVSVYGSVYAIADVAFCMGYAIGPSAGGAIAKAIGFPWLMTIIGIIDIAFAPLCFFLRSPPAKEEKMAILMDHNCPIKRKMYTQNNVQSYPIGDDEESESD

The assay deals with T1, VMAT (Rattus norvegicus, UniProt Q01827).
T1 construct: The 1.6 kilobase fragment containing the full coding lesion and the part of the 3′ untranslated lesion of rat VMAT-2 cDNA; expressed in transfected cells; host or cells: primary skin fibroblasts from Fischer 344 rats, retrovirally transduced (LINX vector, PhCMV*-1 promoter, PA317 producer line); PFVMAA cells also express bovine AADC
The assay can be described thus: Effect of VMAT inhibitor reserpine on dopamine and DOPAC in PFVMAA cells. Format: cell-based. The note with it: reserpine 3 μM with L-DOPA 1 μM, 2 hours. Here is the method: FIG. 2A–FIG. 2D. Dopamine production and storage in genetically modified fibroblast cells from exogenous L-DOPA. Time course of intracellular (FIG. 2A) and extracellular (FIG. 2B) dopamine levels in PFAADC cells (open circle) and PFVMAA cells (solid circle) after 1 μM L-DOPA incubation for various duration (0 to 6 hours). The dopamine (FIG. 2C) and DOPAC (FIG. 2D) levels in PFAADC cells and PFVMAA cells after 2 hour-incubation with 1 μM L-DOPA and 3 μM reserpine (+rsp) or without reserpine (−rsp). The catecholamine levels were measured both in the media (solid bar) and in the cells (open bar). Data represent the mean±SEM (n=3), from a representative set of several experiments. n.d., nondetectable levels. * p<0.01, Newman-Keuls post-hoc analysis.
This is consistent with metabolism of cytoplasmic dopamine by monoamine oxidase (MAO) in PFAADC cells or PFVMAA cells with reserpine. On the other hand, dopamine is protected from the metabolism because it is sequestrated in the vesicles of PFVMAA cells. […] In summary, VMAT-2 not only increases the intracellular storage capacity and reduce metabolism of dopamine, but also increase overall production of dopamine in fibroblasts genetically modified with AADC (see Table 2).

Each structure is given as a SMILES string.

On to `COC(=O)[C@H]1[C@H]2C[C@@H]3c4[nH]c5cc(OC)ccc5c4CCN3C[C@H]2C[C@@H](OC(=O)c2cc(OC)c(OC)c(OC)c2)[C@@H]1OC` [reserpine], for which the “effect on DOPAC levels of PFVMAA cells” value was “increased DOPAC levels to that of PFAADC”, the “effect on extracellular dopamine level of PFVMAA cells” value is “decreased extracellular dopamine level of PFVMAA to the levels comparable to that of PFAADC cells” and the “effect on intracellular dopamine of PFVMAA cells” value is “depleted intracellular dopamine from PFVMAA completely”.
